Test results from US6090824A, “Therapeutic neurokinin receptor antagonist compounds” (Zeneca Limited, priority 1995, dated 2000).

By UniProt entry, the sequences of proteins in these tests, tags left out.
UniProt P21452, whole entry: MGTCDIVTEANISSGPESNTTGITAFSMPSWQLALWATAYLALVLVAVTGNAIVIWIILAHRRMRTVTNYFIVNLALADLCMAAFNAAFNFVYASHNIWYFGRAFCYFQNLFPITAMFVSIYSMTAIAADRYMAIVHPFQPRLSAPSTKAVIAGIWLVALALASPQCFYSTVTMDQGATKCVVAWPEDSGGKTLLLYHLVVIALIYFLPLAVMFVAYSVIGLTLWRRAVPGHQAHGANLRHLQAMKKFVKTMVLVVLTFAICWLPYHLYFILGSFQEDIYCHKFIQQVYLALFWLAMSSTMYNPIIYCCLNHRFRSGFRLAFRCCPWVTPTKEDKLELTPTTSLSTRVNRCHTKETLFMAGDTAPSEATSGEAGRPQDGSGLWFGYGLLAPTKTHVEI

Biological target: human NK2 receptor (Homo sapiens, UniProt P21452)
Assay: Neurokinin A (NKA) Receptor Binding Assay (Test B)
Settings: versus 3H-NKA binding to MEL-membranes; initial use of assay, standard compound
From the text: Neurokinin A (NKA) Receptor Binding Assay (Test B)
The selectivity of a Compound for binding at the NK1 and the NK2 receptors may be shown by determining its binding at other receptors using standard assays, for example, one using a tritiated derivative of NKB in a tissue preparation selective for NK3 receptors.

IC50: 30 nM
SMILES: CSCC[C@@H]1NC(=O)[C@H](CC(C)C)NC(=O)CNC(=O)[C@H](Cc2ccccc2)NC(=O)[C@H](Cc2c[nH]c3ccccc23)NC(=O)[C@H](CCC(N)=O)NC1=O
